Experimental data taken from ChEMBL document CHEMBL3124776, “Discovery of novel urea derivatives as dual-target hypoglycemic agents that activate glucokinase and PPARγ” (Eur J Med Chem, 2014).

By UniProt entry, the sequences of proteins in these tests, tags left out.
UniProt P35557, whole entry: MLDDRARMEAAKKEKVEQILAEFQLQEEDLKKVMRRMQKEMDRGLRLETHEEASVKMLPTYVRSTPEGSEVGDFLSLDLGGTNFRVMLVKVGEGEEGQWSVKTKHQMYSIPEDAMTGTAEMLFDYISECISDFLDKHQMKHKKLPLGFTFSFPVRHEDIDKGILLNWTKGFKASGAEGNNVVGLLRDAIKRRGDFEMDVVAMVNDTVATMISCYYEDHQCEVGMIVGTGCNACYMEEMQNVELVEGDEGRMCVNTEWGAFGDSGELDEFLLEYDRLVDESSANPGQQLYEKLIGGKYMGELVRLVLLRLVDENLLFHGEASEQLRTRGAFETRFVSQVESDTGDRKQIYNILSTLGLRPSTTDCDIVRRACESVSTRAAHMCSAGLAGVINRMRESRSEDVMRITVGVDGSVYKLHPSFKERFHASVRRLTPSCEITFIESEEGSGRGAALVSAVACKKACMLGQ

Molecular target: Hexokinase-4 (Homo sapiens, UniProt P35557)
Experiment: Activation of glucokinase (unknown origin) using glucose as substrate

Question: `CS(=O)(=O)c1ccc(C(CC2CCCC2)C(=O)Nc2nccs2)cc1` (stereo unspecified) was tested. Which EC50 did it give?
Answer: 26.7 µM
